# Measured values reported in publication PMC10081574, “Evaluation of Antiviral Activity of Gemcitabine Derivatives against Influenza Virus and Severe Acute Respiratory Syndrome Coronavirus 2” (ACS Infectious Diseases, 2023).
# Experiments:
# A/Hong Kong/8/68 (H3N2) = system: A/Hong Kong/8/68 (H3N2); design: unit not given beside the values
# [1] = system: A/Puerto Rico/8/34 (H1N1); design: unit not given beside the values
# B/Lee/40 = assay: CPE reduction antiviral assay in Lee-infected MDCK cells (MTT); assay type: cell-based, influenza B virus
compound,measurement,setting,value
"NC(=O)c1ncn([C@@H]2O[C@H](CO)[C@@H](O)[C@H]2O)n1 [Ribavirin, reference compound]",SI50 HK,A/Hong Kong/8/68 (H3N2),20.4 ± 0.9 (>14.7)
same,SI90 HK,A/Hong Kong/8/68 (H3N2),59.5 ± 6.7 (5.0)
same,SI50 PR8,[1],20.1 ± 2.1 (>14.9)
same,SI90 PR8,[1],79.4 ± 33.1 (3.8)
same,SI90 Lee,B/Lee/40; ratio of CC10 to EC90,2.1
same,SI50 Lee,B/Lee/40; ratio of CC50 to EC50,> 27.0
